Conditions: 20 mg in 20 mL water, 25° C.
Method: The tests were conducted using Sartorius balances (Model SQP) and a pH meter (Brand: INESA, Model No. PHS-3E). 20 mg of the sample was weighed and transferred into a 20 mL volumetric flask with the remainder of the volume comprising water. The solution was mixed. The pH meter was calibrated with pH 4.0 and pH 6.8 standard buffer solutions at 25° C.

CNC[C@H](O)c1ccc(O)c(O)c1 [epinephrine bitartrate]
pH: 3.75

Source: US11505521B2, “Crystalline epinephrine malonate salt” (Biothea Pharma, Inc., priority 2018, dated 2022)
